Source: paper PMC3179181 (Journal of medicinal chemistry, 2010)

How the values were obtained:
in vitro = conditions: rat, microsomes, pH 7.4
[1] = well-stirred model, from rat microsomal CLint
[2] = rat, PO 10 mg/kg, […] post dose

**Q.** For `C[C@@H](CN1CCC(n2c(=O)[nH]c3cc(Br)ccc32)CC1)NC(=O)[C@H]1C[C@@H]1c1ccccc1` [compound 14], which CLint scaled at 1 µM (in vitro) is on record?
**A.** 660 mL/min/kg

**Q.** What about the “predicted hepatic clearance (CLhep)” value [1] of the same compound?
**A.** 63 mL/min/kg

**Q.** What about the Brain [2] of the same compound?
**A.** below quantitation
